Biological target: estrogen receptors in MCF7 cells (Homo sapiens (Human), UniProt P03372)
Test: Degradation of estrogen receptors in MCF7 cells (in-cell western)
Type: cell-based
Settings: 24 hours, 0.1 µM fulvestrant = 100% degradation control, read-out: Maximum degradation rate
Protocol: The purpose of the experiment is to determine the degradation activity of the compounds of the present invention on endogenously expressed estrogen receptors in MCF7 cells, and to evaluate the activity of the compounds according to DC50 and maximum degradation efficiency.
MCF7 cells (ATCC, HTB-22) were cultured in DMEM (Gibco, 11995-065) complete medium containing 10% fetal bovine serum. On the first day of the experiment, MCF7 cells were inoculated in a 384-well plate at a density of 3000 cells/well using the complete medium, and cultured in a 37° C., 5% CO2 cell incubator. The compounds to be tested were dissolved in DMSO with a stock concentration of 10 mM, the solution was diluted with Echo 550 (Labcyte Inc.) and added to the cell culture plate. Each compound with the starting concentration for treatment of 100 nM was subjected to 3-fold gradient dilution with 9 concentration points. […] After washing with PBST 3 times, the fluorescence signal of each well was read using Odyssey CLx, and the value of Chanel 800 (ER)/Chanel 680 (GAPDH) was calculated. The wells treated with 0.1 µM fulvestrant were used as the 100% degradation control, and the degradation rate at each concentration point was calculated. The data were analyzed and processed by XlLfit, and the degradation activity DC50 and the maximum degradation rate Imax of each compound were calculated.

Amino acid sequences for entries named in this document (tags omitted).
UniProt P03372, whole entry: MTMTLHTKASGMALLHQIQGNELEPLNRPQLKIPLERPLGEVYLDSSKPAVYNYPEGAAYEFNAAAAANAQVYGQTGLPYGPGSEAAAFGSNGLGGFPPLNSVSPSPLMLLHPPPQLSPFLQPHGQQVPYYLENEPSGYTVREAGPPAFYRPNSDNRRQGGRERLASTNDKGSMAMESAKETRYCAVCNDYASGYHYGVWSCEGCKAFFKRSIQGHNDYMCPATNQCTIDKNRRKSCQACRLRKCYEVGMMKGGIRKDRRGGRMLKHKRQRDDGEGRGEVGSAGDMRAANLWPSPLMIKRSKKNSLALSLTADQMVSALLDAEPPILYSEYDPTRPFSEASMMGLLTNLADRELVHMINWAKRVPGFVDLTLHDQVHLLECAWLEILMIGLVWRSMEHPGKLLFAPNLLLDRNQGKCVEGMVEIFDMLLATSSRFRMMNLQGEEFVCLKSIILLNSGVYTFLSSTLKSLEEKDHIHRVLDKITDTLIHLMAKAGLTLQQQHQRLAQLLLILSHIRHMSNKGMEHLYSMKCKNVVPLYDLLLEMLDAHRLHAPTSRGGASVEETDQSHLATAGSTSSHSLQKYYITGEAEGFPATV

SMILES: C[C@@H]1Cc2c([nH]c3ccccc23)C(c2c(F)cc(N[C@H]3CCN(CCCF)C3)cc2F)N1CC(F)(F)CO (stereo in doubt) [Example 7, 3-((1S,3R)-1-(2,6-difluoro-4-(((S)-1-(3-fluoropropyl)pyrrolidin-3-yl)amino)phenyl)-3-methyl-3,4-dihydro-1H-pyridino [3,4-b]indole-2(9H)-yl)-2,2-difluoropropane-1-ol]
- Dmax: 99%
